Our source for the Emax values is ChEMBL document CHEMBL4602618, “Novel compounds that reverse the disease phenotype in Type 2 Gaucher disease patient-derived cells” (Bioorg Med Chem Lett, 2020).

For the experiment, the species on record is Homo sapiens. As to the kind of experiment: Chaperone activity at GCase L444P GBA gene mutant in human fibroblasts derived from Gaucher patient assessed as increase in GPN-induced reduction of calcium release using Fluo-8AM based fluorescence assay relative to control.

Take `CCCC(C(=O)c1ccc(OCCN(C)C)cc1)c1ccccc1` (configuration not stated): the Emax was determined as 0%.

Take `CCC(C(=O)c1ccc(OCCN(C)C)cc1)c1ccccc1` (configuration not stated): the Emax is 0%.
